Results taken from US10308689B2, “Dengue virus (DV) polypeptide sequences, T cell epitopes and methods and uses thereof” (LA JOLLA INSTITUTE FOR ALLERGY AND IMMUNOLOGY, priority 2010, dated 2019).

System: PBMC of healthy adult blood donors from Colombo, Sri Lanka
Test: Ex vivo IFNγ ELISPOT, HLA-matched PBMC of Sri Lankan blood donors
Assay type: cell-based, human
Conditions: ex vivo IFNγ ELISPOT
[1] = donors expressing HLA B*0702 (supertype B7)
[2] = donors expressing HLA B*5801 (supertype B58)
[3] = donors expressing HLA A*0201 (supertype A2)
[4] = donors expressing HLA A*1101 (supertype A3)

CC(C)C[C@H](NC(=O)CNC(=O)[C@H](CCC(=O)O)NC(=O)CN)C(=O)N[C@@H](Cc1c[nH]cn1)C(=O)N[C@@H](CCCCN)C(=O)N[C@@H](CC(C)C)C(=O)NCC(=O)N[C@@H](Cc1ccc(O)cc1)C(=O)O
T cell response [SFC] (donors expressing B*4403): 248 SFC

CC(C)C[C@H](NC(=O)[C@H](CC(C)C)NC(=O)CNC(=O)CNC(=O)[C@H](C)NC(=O)[C@@H](NC(=O)[C@H](CC(C)C)NC(=O)[C@@H]1CCCN1C(=O)CN)C(C)C)C(=O)O
T cell response [SFC] [1]: 35 SFC

CC[C@H](C)[C@H](NC(=O)[C@H](CCSC)NC(=O)[C@H](CC(N)=O)NC(=O)[C@@H]1CCCN1C(=O)[C@@H](N)CC(N)=O)C(=O)N[C@@H](CC(=O)O)C(=O)N[C@@H](CCCCN)C(=O)N[C@H](C(=O)N1CCC[C@H]1C(=O)N[C@H](C(=O)O)C(C)C)[C@@H](C)O
T cell response [SFC] (donors expressing B*0702): 207 SFC

CC[C@H](C)[C@H](NC(=O)[C@H](C)NC(=O)[C@H](CCCNC(=N)N)NC(=O)[C@H](CO)NC(=O)CNC(=O)[C@@H](N)CCCCN)C(=O)N[C@@H](Cc1c[nH]c2ccccc12)C(=O)N[C@@H](Cc1ccc(O)cc1)C(=O)N[C@@H](CCSC)C(=O)N[C@@H](Cc1c[nH]c2ccccc12)C(=O)O
T cell response [SFC] (donors expressing B*5801): 335 SFC

CC[C@H](C)[C@H](NC(=O)[C@@H]1CCCN1C(=O)CNC(=O)[C@@H](NC(=O)[C@H](C)N)[C@@H](C)O)C(=O)N[C@@H](CC(C)C)C(=O)N[C@H](C(=O)N[C@@H](CC(C)C)C(=O)N[C@@H](Cc1c[nH]c2ccccc12)C(=O)O)[C@@H](C)O
T cell response [SFC] [2]: 27 SFC

CC(C)[C@H](NC(=O)[C@H](C)NC(=O)[C@H](C)NC(=O)[C@@H](N)CCCNC(=N)N)C(=O)N[C@@H](CCC(=O)O)C(=O)N[C@@H](CC(=O)O)C(=O)N[C@@H](CCC(=O)O)C(=O)N[C@@H](CCC(=O)O)C(=O)N[C@@H](Cc1ccccc1)C(=O)O
T cell response [SFC] (donors expressing B*5801): 87 SFC

CSCC[C@H](NC(=O)[C@H](CCSC)NC(=O)[C@H](CC(C)C)NC(=O)[C@@H](N)CS)C(=O)N[C@@H](CCSC)C(=O)N[C@@H](CC(C)C)C(=O)N1CCC[C@H]1C(=O)N[C@@H](C)C(=O)N[C@H](C(=O)N[C@@H](CC(C)C)C(=O)O)[C@@H](C)O
T cell response [SFC] [3]: 63 SFC

CC(C)C[C@H](NC(=O)[C@H](CS)NC(=O)[C@H](CCCNC(=N)N)NC(=O)[C@H](CCCNC(=N)N)NC(=O)[C@@H]1CCCN1C(=O)[C@@H](N)CC(=O)O)C(=O)N[C@@H](CCCCN)C(=O)N1CCC[C@H]1C(=O)N[C@H](C(=O)O)C(C)C
T cell response [SFC] [1]: 115 SFC

CC(C)C[C@H](NC(=O)[C@H](CCC(=O)O)NC(=O)[C@H](CC(C)C)NC(=O)[C@H](CCCCN)NC(=O)CNC(=O)[C@H](CC(C)C)NC(=O)[C@H](Cc1c[nH]cn1)NC(=O)[C@H](Cc1c[nH]c2ccccc12)NC(=O)[C@@H]1CCCN1C(=O)CN)C(=O)O
T cell response [SFC] [1]: 53 SFC

CSCC[C@H](NC(=O)CNC(=O)[C@H](CCCCN)NC(=O)[C@H](CC(C)C)NC(=O)[C@H](C)NC(=O)[C@H](CCC(=O)O)NC(=O)[C@H](C)NC(=O)[C@H](CCSC)NC(=O)[C@H](CCC(=O)O)NC(=O)[C@@H](N)CO)C(=O)O
T cell response [SFC] (donors expressing HLA B*4001 (supertype B44)): 120 SFC

CC[C@H](C)[C@H](NC(=O)[C@H](Cc1ccc(O)cc1)NC(=O)[C@@H](N)CCC(N)=O)C(=O)N[C@@H](Cc1ccccc1)C(=O)N[C@H](C(=O)NCC(=O)N[C@@H](CCC(N)=O)C(=O)N1CCC[C@H]1C(=O)N[C@@H](CC(C)C)C(=O)O)[C@@H](C)O
T cell response [SFC] (donors expressing HLA A*2402 (supertype A24)): 78 SFC

CC(C)[C@H](NC(=O)[C@H](CCC(=O)O)NC(=O)[C@H](Cc1ccc(O)cc1)NC(=O)[C@H](CO)NC(=O)CNC(=O)[C@H](Cc1c[nH]cn1)NC(=O)[C@H](Cc1ccc(O)cc1)NC(=O)[C@H](C)NC(=O)[C@@H](N)Cc1c[nH]c2ccccc12)C(=O)O
T cell response [SFC] (donors expressing B*5101): 97 SFC

CC[C@H](C)[C@H](NC(=O)[C@H](CC(C)C)NC(=O)[C@H](C)NC(=O)[C@H](CC(C)C)NC(=O)[C@H](CC(C)C)NC(=O)[C@@H](N)CCSC)C(=O)N[C@@H](C)C(=O)N[C@H](C(=O)N[C@@H](CC(C)C)C(=O)O)C(C)C
T cell response [SFC] [3]: 85 SFC

CSCC[C@H](NC(=O)CNC(=O)[C@H](CC(C)C)NC(=O)[C@H](CC(=O)O)NC(=O)[C@H](CCCNC(=N)N)NC(=O)[C@H](CCCCN)NC(=O)[C@@H](NC(=O)[C@@H](N)[C@@H](C)O)[C@@H](C)O)C(=O)N[C@@H](CO)C(=O)N[C@@H](CCCCN)C(=O)O
T cell response [SFC] [4]: 75 SFC

CSCC[C@H](NC(=O)[C@H](CCSC)NC(=O)[C@@H](N)CCSC)C(=O)N[C@@H](CC(C)C)C(=O)N1CCC[C@H]1C(=O)N[C@@H](C)C(=O)N[C@H](C(=O)N[C@@H](CC(C)C)C(=O)N[C@@H](C)C(=O)O)[C@@H](C)O
T cell response [SFC] [3]: 62 SFC

CC(C)C[C@H](NC(=O)CNC(=O)[C@H](C)NC(=O)CNC(=O)[C@H](C)NC(=O)[C@H](CC(C)C)NC(=O)[C@@H](N)Cc1ccc(O)cc1)C(=O)N[C@@H](C)C(=O)N[C@@H](Cc1ccccc1)C(=O)O
T cell response [SFC] [1]: 72 SFC

CC[C@H](C)[C@H](NC(=O)[C@@H]1CCCN1C(=O)CNC(=O)[C@@H](NC(=O)[C@H](C)N)[C@@H](C)O)C(=O)N[C@H](C(=O)N[C@H](C(=O)N[C@@H](CC(C)C)C(=O)N[C@@H](Cc1c[nH]c2ccccc12)C(=O)O)[C@@H](C)O)[C@@H](C)O
T cell response [SFC] [2]: 110 SFC

CC[C@H](C)[C@H](NC(=O)[C@H](C)NC(=O)[C@H](CC(C)C)NC(=O)[C@H](CS)NC(=O)[C@H](CC(C)C)NC(=O)[C@@H](NC(=O)CNC(=O)[C@H](CCSC)NC(=O)[C@@H](NC(=O)[C@@H](N)Cc1ccccc1)[C@@H](C)O)C(C)C)C(=O)O
T cell response [SFC] [3]: 33 SFC

CC(C)C[C@H](NC(=O)[C@H](CCCNC(=N)N)NC(=O)[C@@H]1CCCN1C(=O)[C@@H](N)CC(N)=O)C(=O)N[C@@H](CS)C(=O)N[C@H](C(=O)N[C@@H](CCCNC(=N)N)C(=O)N[C@@H](CCC(=O)O)C(=O)N[C@@H](CCC(=O)O)C(=O)N[C@@H](Cc1ccccc1)C(=O)O)[C@@H](C)O
T cell response [SFC] (donors expressing B*0702): 25 SFC

CC[C@H](C)[C@H](NC(=O)[C@@H](NC(=O)[C@@H](NC(=O)[C@H](CC(N)=O)NC(=O)[C@H](Cc1c[nH]c2ccccc12)NC(=O)[C@H](Cc1ccccc1)NC(=O)[C@H](CCCCN)NC(=O)CNC(=O)[C@@H]1CCCN1C(=O)[C@@H](N)CO)[C@@H](C)O)[C@@H](C)O)C(=O)O
T cell response [SFC] [1]: 105 SFC

CC[C@H](C)[C@H](NC(=O)[C@H](C)NC(=O)[C@H](CC(C)C)NC(=O)[C@H](CC(C)C)NC(=O)[C@@H]1CCCN1C(=O)[C@@H](N)C(C)C)C(=O)NCC(=O)N[C@@H](CS)C(=O)N[C@@H](Cc1ccc(O)cc1)C(=O)O
T cell response [SFC] (donors expressing HLA B*3501 (supertype B7)): 213 SFC

CC[C@H](C)[C@H](NC(=O)[C@H](C)NC(=O)CNC(=O)[C@H](CO)NC(=O)[C@@H](N)CCCCN)C(=O)N[C@@H](CCCCN)C(=O)N[C@H](C(=O)N[C@@H](CC(C)C)C(=O)N[C@@H](CCCCN)C(=O)O)C(C)C
T cell response [SFC] [4]: 823 SFC

CSCC[C@H](NC(=O)[C@H](CCSC)NC(=O)[C@@H](N)CC(C)C)C(=O)N[C@@H](CCSC)C(=O)N[C@@H](CC(C)C)C(=O)N1CCC[C@H]1C(=O)N[C@@H](C)C(=O)N[C@H](C(=O)N[C@@H](CC(C)C)C(=O)O)[C@@H](C)O
T cell response [SFC] [3]: 78 SFC
